Target: M2_G15 fusion protein (M2 muscarinic receptor fused with the G15 G-protein alpha-subunit) (Homo sapiens, UniProt P08172)
Assay: agonist-stimulated […]GTPγS binding, membranes
Assay type: biochemical
Set-up: gene CHRM2; clone #3, except KA from all five clones

Protein sequences, listed by entry. Tags and fused reporters are not part of them.
UniProt P08172, whole entry: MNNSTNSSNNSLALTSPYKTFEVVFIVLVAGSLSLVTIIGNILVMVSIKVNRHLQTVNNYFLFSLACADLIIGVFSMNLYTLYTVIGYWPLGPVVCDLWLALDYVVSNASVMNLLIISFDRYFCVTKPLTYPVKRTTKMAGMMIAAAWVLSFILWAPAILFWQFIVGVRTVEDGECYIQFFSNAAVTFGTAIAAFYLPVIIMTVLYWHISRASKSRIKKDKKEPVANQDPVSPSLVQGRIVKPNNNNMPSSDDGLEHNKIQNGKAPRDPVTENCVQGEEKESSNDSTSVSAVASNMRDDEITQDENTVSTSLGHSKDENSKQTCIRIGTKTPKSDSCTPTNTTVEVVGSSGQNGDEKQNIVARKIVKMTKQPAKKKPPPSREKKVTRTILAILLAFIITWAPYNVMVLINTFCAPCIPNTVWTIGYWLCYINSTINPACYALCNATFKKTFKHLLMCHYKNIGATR

CCCCCCOc1nsnc1C1=CCCN(C)C1 [Xanomeline]
EC50: 4.57 nM

— paper PMC6420642, “Applications and limitations of fitting of the operational model to determine relative efficacies of agonists” (Scientific Reports, 2019)
